One compound from patent publication EP1790337A2, “Methods and compounds for treating depression and other disorders” (priority 1998, dated 2000) can be followed below.

This experiment concerns NMDA receptor. Description: NMDA assay: fura-2 measurement of cytosolic calcium in cultured rat cerebellar granule cells. Format: cell-based. The following applies: read-out: fura2 data IC50, fura-2 [Ca2+]i.

Take `CNCCC(Oc1ccccc1OC)c1ccccc1` (stereo not shown) [Nisoxetine]: the IC50 was 1230 nM.
